Molecular target: Sterol O-acyltransferase 1 (Oryctolagus cuniculus)
Test: In vitro inhibition of rabbit intestinal acyl coenzyme A:cholesterol acyltransferase using [1-14C]oleolyl-CoA

IC50: 2.5 µM
SMILES: COc1ccc(C(=O)NC(C)(C)CNC(=O)Nc2c(C(C)C)cccc2C(C)C)cc1
